# Measured values reported in paper PMC7463582, “Modulation and Protection Effects of Antioxidant Compounds against Oxidant Induced Developmental Toxicity in Zebrafish” (Antioxidants, 2020).
# Tested on: zebrafish embryos
# Settings: pre-exposure to the modulator at MTC
smiles,measurement,setting,value
CC(=O)N[C@@H](CS)C(=O)O [N-acetyl-L-cysteine],Shift of the LPS lethality concentration–effect curve,"then LPS, versus LPS alone",shifted the lethality concentration–effect curves significantly
same,Shift of the TCHQ concentration–response curves for lethality and dysmorphogenesis,"then TCHQ, versus TCHQ alone",significantly shifted to higher concentrations of TCHQ
same,Shift of the tBOOH concentration–response curves (lethality and dysmorphogenesis),"then tBOOH, versus tBOOH alone",significantly drifted the tBOOH concentration–response curves to higher concentrations
